Literature values as cited in patent US20080227813A1, “Pharmaceutical compositions and methods for treating diseases associated with neurodegeneration” (priority 2006, published 2008).

System: patients suffering from ALS
Details: cited from earlier work

## Nc1nc2ccc(OC(F)(F)F)cc2s1 [riluzole, Riluzole]
  extension of survival: approximately 3 months
